Laboratory results published in PubChem BioAssay AID1645855 (Buhrlage Lab, Dana-Farber Cancer Institute and Novartis …, 2021).
Only a part is listed here, and it is no random draw. Some of these compounds have results that are not shown, active ones among them. The source made the active and inactive calls. No stated cut-off is given here; in the data, active means inhibition above about 30%; inactive means the rest.

The chains behind the UniProt entries cited, without tags or fusion partners.
UniProt A8MUK1, whole entry: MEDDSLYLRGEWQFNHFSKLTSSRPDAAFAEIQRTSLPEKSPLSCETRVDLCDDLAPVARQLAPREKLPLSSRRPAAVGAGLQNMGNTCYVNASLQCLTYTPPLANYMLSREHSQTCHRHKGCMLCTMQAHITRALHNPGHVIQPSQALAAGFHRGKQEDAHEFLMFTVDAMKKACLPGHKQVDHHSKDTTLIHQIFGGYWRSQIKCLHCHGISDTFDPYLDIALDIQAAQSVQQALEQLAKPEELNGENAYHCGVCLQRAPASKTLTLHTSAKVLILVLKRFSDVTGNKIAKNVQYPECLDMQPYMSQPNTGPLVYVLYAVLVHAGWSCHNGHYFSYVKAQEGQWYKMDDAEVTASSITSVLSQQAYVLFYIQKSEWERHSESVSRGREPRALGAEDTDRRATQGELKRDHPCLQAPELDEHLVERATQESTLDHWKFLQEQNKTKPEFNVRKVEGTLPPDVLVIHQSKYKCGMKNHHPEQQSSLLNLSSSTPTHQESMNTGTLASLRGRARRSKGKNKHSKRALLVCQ

Target: Ubiquitin carboxyl-terminal hydrolase 17-like protein 5 (Homo sapiens) (UniProt A8MUK1)
Assay: inhibitors of human USP17 deubiquitinase (AID 1645855)
Details: purified USP17, Ub-rhodamine cleavage fluorescence, 3 h; at 50 µM; stronger effect = higher value

Q: `COc1ccc(C(=O)NCC2(N3CCOCC3)CCCCC2)cc1` was tested. Which inhibition did it give?
A: inactive: -7.41%

Q: With `O=C(NCC1(N2CCCCC2)CCCCC1)c1ccc2c(c1)OCCO2` as the compound, how does the inhibition read?
A: inactive: 4.2%

Q: `Cc1c(C(=O)NCC2(N(C)C)CCCCC2)oc2ccc(F)cc12` was tested. Which inhibition did it give?
A: inactive: 1.69%

Q: How did the inhibition turn out when `COc1cccc(C(=O)NCC2(N3CCCCC3)CCCCC2)c1` was run?
A: inactive: -35.4%

Q: How did the inhibition turn out when `Cc1c(C(=O)NCC2(N(C)C)CCCCC2)oc2ccccc12` was run?
A: inactive: -15.8%

Q: How did the inhibition turn out when `O=C(NCC1(N2CCCCC2)CCCCC1)c1ccc2ccccc2c1` was run?
A: inactive: -9.05%

Q: For `O=C(NCC1(N2CCOCC2)CCCCC1)c1ccccc1F`, which inhibition is on record?
A: inactive: -0.897%
